The values that follow come from publication PMC8556345 (Cell, 2021).

This data set deals with grpLight in ACx. Nature of the data set: in vivo dual-color photometry of grpLight and TAMRA-GRP, diffusion in cortex. More on the design: species or system mouse. In a few lines: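 Dual-color fiber photometry of grpLight1.2 and TAMRA signal was recorded in auditory cortex. GRP and TAMRA-GRP (2 μl in total, 300 μM each) were infused through a cannula into visual cortex at 100 nl/min.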

As for “Val-Ser-Thr-Gly-Ala-Gly- Gly- Gly-Thr-Val-Leu-Ala-Lys-Met-Tyr-Pro-Arg-Gly-Ser-His-Trp-Ala-Val-Gly-His-Leu-Met-NH2 [GRP, gastrin-releasing peptide]”, the “diffusion in intact brain tissue” value is recorded as “diffuses slowly”.
